Experimental data as given in ChEMBL document CHEMBL3638423 (2015).

Sequences of proteins named here, by UniProt entry; tags and fusion partners are left off. A change or cut given only in a name is not applied to a line headed by its entry.
UniProt Q9Y233: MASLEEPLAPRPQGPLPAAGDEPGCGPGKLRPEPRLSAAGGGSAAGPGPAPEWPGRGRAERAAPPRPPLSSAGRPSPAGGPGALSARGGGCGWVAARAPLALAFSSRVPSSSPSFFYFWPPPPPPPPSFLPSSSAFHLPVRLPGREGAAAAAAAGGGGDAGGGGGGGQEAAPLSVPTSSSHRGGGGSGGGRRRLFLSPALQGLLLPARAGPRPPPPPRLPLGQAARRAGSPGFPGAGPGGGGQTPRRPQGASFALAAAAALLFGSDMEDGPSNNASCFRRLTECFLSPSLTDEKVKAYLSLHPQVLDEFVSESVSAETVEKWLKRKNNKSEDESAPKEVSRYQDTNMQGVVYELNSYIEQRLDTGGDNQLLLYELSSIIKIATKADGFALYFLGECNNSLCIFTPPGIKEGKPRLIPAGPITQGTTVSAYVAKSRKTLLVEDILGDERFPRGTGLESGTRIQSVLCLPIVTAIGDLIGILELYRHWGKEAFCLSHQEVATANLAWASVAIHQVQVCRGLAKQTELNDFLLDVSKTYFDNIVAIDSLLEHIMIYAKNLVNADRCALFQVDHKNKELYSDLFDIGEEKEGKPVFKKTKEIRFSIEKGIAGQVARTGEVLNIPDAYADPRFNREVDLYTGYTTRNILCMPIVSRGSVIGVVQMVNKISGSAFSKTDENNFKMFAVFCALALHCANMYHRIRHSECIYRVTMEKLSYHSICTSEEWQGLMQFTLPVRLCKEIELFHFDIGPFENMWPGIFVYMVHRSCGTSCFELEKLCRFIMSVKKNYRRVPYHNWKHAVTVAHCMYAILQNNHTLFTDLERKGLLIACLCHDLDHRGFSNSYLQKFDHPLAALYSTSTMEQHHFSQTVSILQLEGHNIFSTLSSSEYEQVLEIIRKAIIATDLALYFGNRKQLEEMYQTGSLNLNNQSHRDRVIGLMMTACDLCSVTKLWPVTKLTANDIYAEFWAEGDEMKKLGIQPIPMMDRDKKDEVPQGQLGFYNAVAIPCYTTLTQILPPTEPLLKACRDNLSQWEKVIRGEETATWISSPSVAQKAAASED

molecular target: cAMP and cAMP-inhibited cGMP 3',5'-cyclic phosphodiesterase 10A (Homo sapiens, UniProt Q9Y233)

Row | IC50 | Structure (SMILES)
1 | 3670 nM | Cc1cccc(C(=O)N2CC(c3nccnc3-c3ccccc3)C2)n1
2 | 2 nM | COc1ccc(-c2nccnc2C2CN(c3ccc4ccccc4n3)C2)cc1
3 | 4 nM | c1ccc2nc(N3CC(c4nccnc4-c4ccncc4)C3)ccc2c1
4 | 2 nM | CCOC(=O)c1ccc(-c2nccnc2C2CN(c3ccc4ccccc4n3)C2)cc1
5 | 10 nM | Fc1cc(-c2nccnc2C2CN(c3ccc4ccccc4n3)C2)ccn1
6 | 0.7 nM | CC(C)(C)OC(=O)N1CC=C(c2nccnc2C2CN(c3ccc4ccccc4n3)C2)CC1
7 | 2 nM | c1ccc(-c2cccc(-c3nccnc3C3CN(c4ccc5ccccc5n4)C3)c2)cc1
8 | 6 nM | N#Cc1ccc(-c2nccnc2C2CN(c3ccc4ccccc4n3)C2)cc1F
9 | 7.23 nM | CC(C)Oc1ccc(-c2nccnc2C2CN(c3ccc4ccccc4n3)C2)cc1
10 | 21.2 nM | O=S(=O)(c1ccc(-c2nccnc2C2CN(c3ccc4ccccc4n3)C2)cc1)N1CCCCC1
11 | 2 nM | CN(C(=O)OC(C)(C)C)C1CCN(c2nccnc2C2CN(c3ccc4ccccc4n3)C2)C1 (stereo unspecified)
12 | 1 nM | CC(C)(C)OC(=O)N1C[C@@H]2CN(c3nccnc3C3CN(c4ccc5ccccc5n4)C3)C[C@@H]2C1
13 | 3 nM | CC(C)(C)OC(=O)N1CC2CN(c3nccnc3C3CN(c4ccc5ccccc5n4)C3)CC2C1 (stereo unspecified)
14 | 6 nM | OC[C@@H]1CCN(c2nccnc2C2CN(c3ccc4ccccc4n3)C2)C1
15 | 6 nM | OC[C@H]1CCN(c2nccnc2C2CN(c3ccc4ccccc4n3)C2)C1
16 | 21 nM | CC(C)(C)OC(=O)N[C@@H]1CCN(c2nccnc2C2CN(c3ccc4ccccc4n3)C2)C1
17 | 811 nM | COC[C@H]1CCCN1c1nccnc1C1CN(c2ccc3ccccc3n2)C1
18 | 21 nM | COC1CN(c2nccnc2C2CN(c3ccc4ccccc4n3)C2)C1

Row | IC50 | Structure (SMILES)
19 | 2.2 nM | CN1CCN(c2nccnc2C2CN(c3ccc4ccccc4n3)C2)CC1=O
20 | 4 nM | OCC1(CC2CC2)CCN(c2nccnc2C2CN(c3ccc4ccccc4n3)C2)CC1
21 | 0.635 nM | CC(=O)Nc1cccc(-c2nccnc2C2CN(c3ncc4ccccc4n3)C2)c1
22 | 9.59 nM | CS(=O)(=O)Nc1cccc(-c2nccnc2C2CN(c3ncc4ccccc4n3)C2)c1
23 | 5.95 nM | Cn1ccc2cc(-c3nccnc3C3CN(c4ncc5ccccc5n4)C3)ccc21
24 | 9.46 nM | O=C1Cc2cc(-c3nccnc3C3CN(c4ncc5ccccc5n4)C3)ccc2N1
25 | 1.78 nM | Cc1cccc(-c2nccnc2C2CN(c3ccc4ccccc4n3)C2)c1
26 | 9.29 nM | COc1cccc(-c2nccnc2C2CN(c3ncc4ccccc4n3)C2)c1
27 | 2.43 nM | OCC1CCN(c2nc3ccccc3nc2C2CN(c3ccc4ccccc4n3)C2)CC1
28 | 0.99 nM | Oc1cccc(-c2nc3ccccc3nc2C2CN(c3ccc4ccccc4n3)C2)c1
29 | 4.65 nM | Oc1cccc(-c2nccnc2C2CN(c3ccc4ccccc4n3)C2)c1
30 | 133 nM | Nc1ccccc1-c1nccnc1C1CN(c2ccc3ccccc3n2)C1
31 | 2.98 nM | COc1cc(-c2nccnc2C2CN(c3ccc4ccccc4n3)C2)ccc1F
32 | 11.7 nM | OCC1CCN(c2nccnc2C2CN(c3ncc4cccc(Cl)c4n3)C2)CC1
33 | 0.5 nM | OCC1CCN(c2nccnc2C2CN(c3cnc4ccc(Cl)cc4n3)C2)CC1
34 | 10 nM | COc1cccc(-c2nccnc2C2CN(c3nc4ccc(OC)cc4s3)C2)c1
35 | 730 nM | O=C(c1nc2ccccc2[nH]1)N1CC(c2nccnc2Oc2ccccc2)C1

Row | Structure (SMILES) | IC50
36 | CNC(=O)c1cccc(-c2nccnc2C2CN(c3ccc4ccccc4n3)C2)c1 | 0.7 nM
